Source: paper PMC6679423 (International Journal of Molecular Sciences, 2019)

Chains of the proteins cited; added tags and fusions are not shown.
UniProt P10635, whole entry: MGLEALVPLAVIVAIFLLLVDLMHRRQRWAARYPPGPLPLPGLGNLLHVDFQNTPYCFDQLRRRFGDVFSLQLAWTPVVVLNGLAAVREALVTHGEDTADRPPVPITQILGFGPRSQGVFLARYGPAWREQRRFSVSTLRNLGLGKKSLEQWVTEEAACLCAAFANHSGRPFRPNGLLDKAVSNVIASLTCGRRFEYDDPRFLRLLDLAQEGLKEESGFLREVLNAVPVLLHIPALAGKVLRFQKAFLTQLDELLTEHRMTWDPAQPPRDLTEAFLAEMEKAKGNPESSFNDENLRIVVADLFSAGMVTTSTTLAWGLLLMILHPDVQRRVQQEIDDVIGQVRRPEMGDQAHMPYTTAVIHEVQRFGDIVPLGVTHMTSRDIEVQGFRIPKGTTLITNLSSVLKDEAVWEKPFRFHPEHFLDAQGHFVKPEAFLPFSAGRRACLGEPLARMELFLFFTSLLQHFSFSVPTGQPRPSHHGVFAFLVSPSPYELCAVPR

Target: human recombinant CYP2D6 (Homo sapiens, UniProt P10635)
Assay: Vandetanib oxidation by human recombinant CYP2D6 (Supersomes)
Details: CYP2D6, oxidation to N-desmethylvandetanib

For `COc1cc2c(Nc3ccc(Br)cc3F)ncnc2cc1OCC1CCN(C)CC1` [vandetanib, N-(4-bromo-2-fluorophenyl)-6-methoxy-7-[(1-methylpiperidin-4-yl)-methoxy]-quinazolin-4-amine, reference compound], the “K0.5, substrate concentration corresponding to half-maximal velocity” value was 84.36 ± 18.14 µM.
